Series [1] deals with Type-1 angiotensin II receptor (Homo sapiens, UniProt P30556). Kind of series: antagonism of angiotensin II type 1 receptor – cell-based, uHTS hits, selectivity assay for APJ receptor antagonist project, dose response (AID 463214).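 Note: antagonist potency against angiotensin II stimulated AT1 response.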 The series is classed as functional.
The target of series [2] is Beta-galactosidase (Escherichia coli, UniProt Q8VNN2). In words: PubChem AID 485352. It is filed as functional.
Series [3] has as its target Cytochrome P450 2C9 (Homo sapiens, UniProt P11712).
Series [4] concerns the target Cytochrome P450 2C19 (Homo sapiens, UniProt P33261). Kind of series: Cytochrome panel assay with activity outcomes. Panel member name: p450-cyp2c19 Compounds with AC50 equal or less than 10 uM are considered active. The series is classed as functional.
In series [5] the target is T1, Protein RecA (Mycobacterium tuberculosis, UniProt P9WHJ3).
T1 sequence (P9WHJ3 whole entry): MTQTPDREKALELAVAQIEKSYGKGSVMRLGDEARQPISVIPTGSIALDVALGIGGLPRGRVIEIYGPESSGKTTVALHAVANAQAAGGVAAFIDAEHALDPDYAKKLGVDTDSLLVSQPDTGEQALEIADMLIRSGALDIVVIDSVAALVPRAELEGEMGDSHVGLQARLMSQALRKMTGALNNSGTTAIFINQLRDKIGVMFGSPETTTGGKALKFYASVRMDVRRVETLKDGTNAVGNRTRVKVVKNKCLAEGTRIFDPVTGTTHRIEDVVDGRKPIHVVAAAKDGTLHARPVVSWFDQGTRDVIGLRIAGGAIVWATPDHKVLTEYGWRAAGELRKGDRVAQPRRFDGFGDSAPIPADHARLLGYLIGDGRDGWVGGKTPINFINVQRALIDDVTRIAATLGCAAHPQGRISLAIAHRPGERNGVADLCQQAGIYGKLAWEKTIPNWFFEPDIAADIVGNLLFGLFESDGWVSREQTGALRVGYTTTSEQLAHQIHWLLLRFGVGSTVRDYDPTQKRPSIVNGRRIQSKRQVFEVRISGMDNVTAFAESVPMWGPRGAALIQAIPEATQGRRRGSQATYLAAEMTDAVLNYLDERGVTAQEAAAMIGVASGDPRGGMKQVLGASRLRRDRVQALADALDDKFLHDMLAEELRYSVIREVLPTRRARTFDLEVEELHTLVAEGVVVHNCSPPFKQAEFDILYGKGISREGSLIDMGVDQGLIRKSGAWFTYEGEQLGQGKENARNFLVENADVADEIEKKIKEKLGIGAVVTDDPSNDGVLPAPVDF
In words: Fluorescence Cell-Free Homogeneous Dose Retest to Identify Inhibitors of RecA-Intein Splicing Activity. [Related pubchem assays (depositor defined):AID2097, AID2223, AID489010, AID492950]. The series is classed as functional.

Protein sequences, listed by entry. Tags and fused reporters are not part of them. Lines headed by an entry give the natural chain unless they say otherwise; changes in a name come on top.
UniProt Q8VNN2, whole entry: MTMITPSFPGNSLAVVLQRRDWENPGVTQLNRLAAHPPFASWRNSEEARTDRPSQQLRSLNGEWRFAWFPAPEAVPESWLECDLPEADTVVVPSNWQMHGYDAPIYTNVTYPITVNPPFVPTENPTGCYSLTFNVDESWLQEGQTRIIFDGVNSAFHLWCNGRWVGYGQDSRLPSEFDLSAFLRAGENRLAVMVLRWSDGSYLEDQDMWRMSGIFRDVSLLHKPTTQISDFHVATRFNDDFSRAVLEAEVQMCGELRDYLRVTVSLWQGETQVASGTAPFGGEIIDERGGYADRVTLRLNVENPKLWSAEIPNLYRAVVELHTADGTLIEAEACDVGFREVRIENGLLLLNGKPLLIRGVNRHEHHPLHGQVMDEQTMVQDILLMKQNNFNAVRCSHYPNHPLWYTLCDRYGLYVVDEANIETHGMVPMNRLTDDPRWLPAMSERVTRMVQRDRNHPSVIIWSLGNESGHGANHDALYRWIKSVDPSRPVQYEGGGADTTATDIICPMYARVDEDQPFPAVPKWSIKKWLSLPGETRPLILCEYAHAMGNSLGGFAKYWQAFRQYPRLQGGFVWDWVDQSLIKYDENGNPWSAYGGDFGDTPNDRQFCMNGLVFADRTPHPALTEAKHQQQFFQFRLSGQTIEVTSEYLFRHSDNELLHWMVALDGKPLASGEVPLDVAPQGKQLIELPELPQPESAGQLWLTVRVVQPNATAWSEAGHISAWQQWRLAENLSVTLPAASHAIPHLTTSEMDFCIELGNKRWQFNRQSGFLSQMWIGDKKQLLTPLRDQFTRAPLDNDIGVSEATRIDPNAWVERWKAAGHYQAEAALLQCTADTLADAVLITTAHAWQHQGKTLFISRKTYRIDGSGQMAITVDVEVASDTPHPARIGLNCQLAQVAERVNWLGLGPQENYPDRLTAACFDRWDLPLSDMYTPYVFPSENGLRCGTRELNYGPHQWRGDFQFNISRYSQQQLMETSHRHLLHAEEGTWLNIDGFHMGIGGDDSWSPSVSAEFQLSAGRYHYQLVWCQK
UniProt P11712, whole entry: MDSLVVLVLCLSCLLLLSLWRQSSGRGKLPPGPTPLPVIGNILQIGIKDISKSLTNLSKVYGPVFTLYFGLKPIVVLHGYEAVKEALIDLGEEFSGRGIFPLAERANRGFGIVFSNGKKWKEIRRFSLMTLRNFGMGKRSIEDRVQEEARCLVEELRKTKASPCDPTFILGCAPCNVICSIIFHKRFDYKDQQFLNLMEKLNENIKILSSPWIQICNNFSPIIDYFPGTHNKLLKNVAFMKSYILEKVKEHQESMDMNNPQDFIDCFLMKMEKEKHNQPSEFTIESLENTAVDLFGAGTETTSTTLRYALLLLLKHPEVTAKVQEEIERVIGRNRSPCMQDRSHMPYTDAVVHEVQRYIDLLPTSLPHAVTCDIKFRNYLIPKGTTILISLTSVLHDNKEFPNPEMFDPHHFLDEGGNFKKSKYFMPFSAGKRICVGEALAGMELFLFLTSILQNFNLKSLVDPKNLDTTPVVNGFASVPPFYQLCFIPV
UniProt P33261, whole entry: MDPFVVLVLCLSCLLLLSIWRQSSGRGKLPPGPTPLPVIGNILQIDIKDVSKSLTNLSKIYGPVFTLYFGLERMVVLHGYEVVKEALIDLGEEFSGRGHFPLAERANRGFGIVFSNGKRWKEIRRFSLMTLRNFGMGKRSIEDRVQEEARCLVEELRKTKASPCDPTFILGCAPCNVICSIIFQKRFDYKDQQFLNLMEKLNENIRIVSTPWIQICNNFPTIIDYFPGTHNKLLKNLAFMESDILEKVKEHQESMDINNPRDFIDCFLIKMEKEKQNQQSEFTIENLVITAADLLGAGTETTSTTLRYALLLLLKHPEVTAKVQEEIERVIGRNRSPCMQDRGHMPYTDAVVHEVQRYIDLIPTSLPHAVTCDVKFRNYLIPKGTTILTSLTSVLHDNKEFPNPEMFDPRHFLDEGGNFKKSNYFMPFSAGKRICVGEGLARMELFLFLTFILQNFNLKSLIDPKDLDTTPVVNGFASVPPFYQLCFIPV
UniProt Q9NZ08: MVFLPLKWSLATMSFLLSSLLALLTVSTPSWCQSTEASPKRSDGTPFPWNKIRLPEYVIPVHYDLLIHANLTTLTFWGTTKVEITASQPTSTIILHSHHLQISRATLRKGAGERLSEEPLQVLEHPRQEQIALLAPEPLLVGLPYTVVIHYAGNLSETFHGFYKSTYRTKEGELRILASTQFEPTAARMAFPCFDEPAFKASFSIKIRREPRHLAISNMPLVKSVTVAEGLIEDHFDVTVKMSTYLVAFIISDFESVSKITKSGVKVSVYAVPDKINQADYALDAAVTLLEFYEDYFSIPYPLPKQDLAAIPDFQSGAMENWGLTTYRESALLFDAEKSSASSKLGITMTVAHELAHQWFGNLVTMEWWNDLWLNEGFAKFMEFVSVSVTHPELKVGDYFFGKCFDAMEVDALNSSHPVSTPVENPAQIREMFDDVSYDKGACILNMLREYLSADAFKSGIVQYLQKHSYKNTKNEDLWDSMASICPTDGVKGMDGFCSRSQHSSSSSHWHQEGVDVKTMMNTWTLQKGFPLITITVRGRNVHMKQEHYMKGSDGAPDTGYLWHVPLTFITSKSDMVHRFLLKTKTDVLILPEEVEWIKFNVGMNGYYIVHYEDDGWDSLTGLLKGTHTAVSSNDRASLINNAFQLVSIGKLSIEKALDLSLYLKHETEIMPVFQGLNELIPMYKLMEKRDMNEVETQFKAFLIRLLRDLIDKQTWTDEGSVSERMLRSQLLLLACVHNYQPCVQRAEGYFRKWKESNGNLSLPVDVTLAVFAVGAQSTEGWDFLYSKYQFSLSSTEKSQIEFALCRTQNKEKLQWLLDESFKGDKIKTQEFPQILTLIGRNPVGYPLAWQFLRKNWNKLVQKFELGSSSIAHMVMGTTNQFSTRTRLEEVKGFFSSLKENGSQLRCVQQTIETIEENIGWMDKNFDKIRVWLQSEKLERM

Series [6] addresses Endoplasmic reticulum aminopeptidase 1 (Homo sapiens, UniProt Q9NZ08). In words: inhibition of human ERAP1 enzyme activity – biochemical, cherry-pick, set 2, plate reader, dose response (AID 743314).

Calls of active or inactive are those of the source. Some results are limits rather than exact numbers.

A word on the IC50: it is the concentration needed to halve the response being measured. Low readings indicate greater potency in that assay, high ones weaker potency in that assay. What is called EC50 is the midpoint of the concentration-response curve. As usually defined, the AC50 is the concentration at which the activity in the assay is half-maximal.

Regarding `Cc1ccnc(SCc2cc(=O)c(OC(=O)c3ccc(Cl)c([N+](=O)[O-])c3)co2)n1`, the IC50 in series [1] is > 40 µM (not active). In addition, the EC50 in series [2] was inactive: > 40 µM.

Turning to `COc1cccc2c1C(=O)c1c(O)c3c(c(O)c1C2=O)C[C@](O)(C(C)=O)C[C@H]3O[C@@H]1C[C@H](N)[C@H](O)[C@H](C)O1`, the AC50 result in series [3] and in series [4] was “inactive” in each case.

Take `Cn1ncnc2c(=O)n(C)c(=O)nc1-2`: in series [5], the EC50 is active: < 0.018 µM.

Turning to `O=c1ccc2ccc(O)cc2o1` [UMBELLIFERONE], the AC50 in series [6] was active: 12.1 µM.

For the origin of these results see ChEMBL document CHEMBL1201862, “PubChem BioAssay data set” (2004).
